{
  "source": "paper PMC9061857",
  "about": "“A fluorogenic probe for granzyme B enables in-biopsy evaluation and screening of response to anticancer immunotherapies” (Nature Communications, 2022)",
  "format_in_all_cases": "cell-based, mouse",
  "key": {"E0771 cells": {"test_system": "E0771 cells", "test": "Flow cytometry of E0771 cells in co-culture with CD8+ T cells", "procedure": "Legends: viable (gray), H5-stained (green), apoptotic (red). […] Black arrows highlight T cells, yellow arrows highlight H5-stained intracellular GzmB puncta. […]\nE0771 cells (5 × 10^4 cells/well) were plated on Geltrex-coated six-well plates with IL-2 (1000 U mL^−1) and co-cultured with either murine CD8+ T cells (2.5 × 10^5 cells/well) which had been previously cultured for 2 days in E-DMEM with anti-mouse CD3e (2 µg mL^−1, ThermoFisher, Catalog: 16-0031-86), anti-mouse CD28 (5 µL mL^−1, ThermoFisher, Catalog: 16-0281-86), and IL-2 (80 U mL^−1). Treatments with staurosporine (1 μM) were for 1 h. […] Cells were then washed twice and incubated with Annexin V-AF647 (10 nM, 1:100 dilution) prior to flow cytometry analysis in a 5 L LSR (software: BD […] V8.0) with data analyzed with FlowJo V10. […]\nmouse CD8+ T cells and mKate-E0771 cells. b) Representative flow cytometry contour plots of E0771 cells in: left) co-cultures of E0771 cells (50,000 cells well-1) and activated […]\n(IL-2 for 24 h) murine CD8+ T cells (200,000 cells well-1), center) co-cultures of E0771 […]\ncells (50,000 cells well-1) and non-activated (IL-2 for 2 h) murine CD8+ T cells (200,000 […]\ncells well-1), right) E0771 alone cells treated with staurosporine (1 µM, 1 h). c) Representative flow cytometry contour plots of CD8+ T cells in: left) co-cultures of E0771 […]\ncells (50,000 cells well -1) and activated (IL-2 for 24 h) murine CD8+ T cells (200,000 cells […]\nwell-1), center) co -cultures of E0771 cells (50,000 cells well -1) and non-activated (IL-2 for […]\n2 h) murine CD8+ T cells (200,000 cells well -1). All cultures in b) and c) were equally […]\nfrom H5-labeled E0771 cancer cells following co -culture with IL-2 activated CD8+ T cells […]\nwith and without preincubation of the GzmB inhibitor Ac -IEPD-CHO. Data presented as […]\n633/670 nm (for AF647-Annexin V). Representative plots from independent experiments performed in triplicate. Source data in d provided as a Source Data file."}, "[1]": {"test_system": "E0771 cells alone or in co-culture with CD8+ T cells", "test": "Hit validation of AZD5363 by flow cytometry", "details": "IL-2, co-culture with CD8+ T cells", "procedure": "(from 3 independent experiments) in E0771 cells alone (50,000 cells well-1) or in co-culture with CD8+ T cells (200,000 cells well-1) and treatment of AZD5363 (1 μM). IL-2 concentration: 1,000 U mL-1. Excitation/emission wavelengths: 488 nm/525 nm. b) Representative flow cytometry contour plots (from 3 independent experiments; gating […]\n(1 picture or pasted object on this page, not shown here) […]\nstrategy shown in Supplementary Figure 7) of E0771 cells (50,000 cells well-1) after co-culture with murine CD8+ T cells (200,000 cells well -1) and dual treatment with IL -2 (200 […]\nU mL-1) and AZD5363 (1 μM).\n633/670 nm (for AF647-Annexin V). c) Percentages of E0771 cells that were double - […]\nin a). Data presented as mean values±SEM (n=3). P values (p<0.001 and p=0.0093) were obtained from ONE-ANOVA tests with multiple c omparisons. Source data in c provided"}, "[2]": {"test_system": "murine naïve CD8+ T cells", "test": "GzmB expression in CD8+ T cells following cytokine stimulation (flow cytometry)", "details": "after IL-2 treatment, anti-GzmB flow cytometry", "procedure": "Supplementary Figure 6. Analysis of GzmB expression in CD8+ T cells following\ncytokine stimulation. Representative histograms (from experiments performed in\ntriplicate) of GzmB expression in murine naïve CD8+ T cells following 2 days of culture\nwith anti-mouse CD3 (2 μg mL-1), anti-mouse CD28 (5 μg mL-1) and different cytokines at\nthe following concentrations: IL-2 (60 U mL-1), IL-15 (60 U mL-1). Cells were incubated\nwith anti-mouse GzmB PE (50 nM) and analysed by flow cytometry in a 5LSR flow\ncytometer. The histograms show naïve CD8+ T cells in red and cytokine-stimulated cells\nin blue. The percentage of anti-GzmB+ CD8+ T cells is shown for every condition.\nExcitation/emission wavelengths for anti-mouse GzmB PE: 561 nm/582 nm.\n(1 picture or pasted object on this page, not shown here)"}, "[3]": {"details": "co-culture with active CD8+ T cells (24 h IL-2), replicate 1"}, "[4]": {"details": "co-culture with active CD8+ T cells (24 h IL-2), replicate 2"}, "[5]": {"details": "co-culture with active CD8+ T cells (24 h IL-2), replicate 3"}, "[6]": {"details": "co-culture with inactive CD8+ T cells (2 h IL-2), replicate 1"}, "[7]": {"details": "co-culture with inactive CD8+ T cells (2 h IL-2), replicate 2"}, "[8]": {"details": "co-culture with inactive CD8+ T cells (2 h IL-2), replicate 3"}},
  "data": [
    {"substance": "IL-2: interleukin IL-2, cytokine for survival, proliferation and activation of CD8+ T cells", "values": [
      {"measurement": "Annexin V +ve E0771 cells", "setting": "E0771 cells; [3]", "result": 88, "unit": "%"},
      {"measurement": "viable E0771 cells", "setting": "E0771 cells; [3]", "result": 12, "unit": "%"},
      {"measurement": "Annexin V +ve E0771 cells", "setting": "E0771 cells; [4]", "result": 88, "unit": "%"},
      {"measurement": "viable E0771 cells", "setting": "E0771 cells; [4]", "result": 10, "unit": "%"},
      {"measurement": "Annexin V +ve E0771 cells", "setting": "E0771 cells; [5]", "result": 84, "unit": "%"},
      {"measurement": "viable E0771 cells", "setting": "E0771 cells; [5]", "result": 19, "unit": "%"},
      {"measurement": "Annexin V +ve E0771 cells", "setting": "E0771 cells; [6]", "result": 18, "unit": "%"},
      {"measurement": "viable E0771 cells", "setting": "E0771 cells; [6]", "result": 74, "unit": "%"},
      {"measurement": "Annexin V +ve E0771 cells", "setting": "E0771 cells; [7]", "result": 14, "unit": "%"},
      {"measurement": "viable E0771 cells", "setting": "E0771 cells; [7]", "result": 86, "unit": "%"},
      {"measurement": "Annexin V +ve E0771 cells", "setting": "E0771 cells; [8]", "result": 39, "unit": "%"},
      {"measurement": "viable E0771 cells", "setting": "E0771 cells; [8]", "result": 62, "unit": "%"},
      {"measurement": "E0771 cells double-stained with probe H5 and AF647-Annexin V", "setting": "[1]; Data1", "result": 21, "unit": "%"},
      {"measurement": "E0771 cells double-stained with probe H5 and AF647-Annexin V", "setting": "[1]; Data2", "result": 29, "unit": "%"},
      {"measurement": "E0771 cells double-stained with probe H5 and AF647-Annexin V", "setting": "[1]; Data3", "result": 27, "unit": "%"},
      {"measurement": "CD8+ T cells expressing GzmB", "setting": "[2]", "result": "over 80%"}
    ]}
  ]
}
